# Antibody variant affinities, Ab-14 heavy chain, assay 1

Values reported by Engelhart et al. 2022, doi:10.1038/s41597-022-01779-4 (FLAb copy).

The target is the same throughout: PDVDLGDISGINAS, from the HR2 region of SARS-CoV-2 spike.

Ab-14 is the parent antibody, in scFv form: VH, then three GGGGS repeats, then VL. The light chain is unchanged in all variants.
VH: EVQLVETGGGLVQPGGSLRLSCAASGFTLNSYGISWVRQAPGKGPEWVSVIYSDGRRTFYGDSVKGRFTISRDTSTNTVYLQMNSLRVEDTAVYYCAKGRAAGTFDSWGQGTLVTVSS
VL: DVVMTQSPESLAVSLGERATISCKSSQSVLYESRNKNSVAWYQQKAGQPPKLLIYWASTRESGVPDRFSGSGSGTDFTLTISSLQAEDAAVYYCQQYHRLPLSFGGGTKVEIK

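AAYL49 was designed without a model: most single CDR substitutions and a random sample of double and triple ones. In AlphaSeq, yeast of one mating type display the scFv and yeast of the other type display the target. After mating in shaken culture at 30 °C for 16 h, diploids were selected and their barcode pairs sequenced. Scores were corrected for input abundance and mapped to Kd with protein pairs of known affinity run in the same pool. There are three technical replicates.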

The whole VH of each variant is written out. Each Kd is an estimate from the mating assay, the geometric mean of the replicates in which the pair was seen; lower is stronger. Where no diploid with the target was found in any replicate, the entry reads "nd": below detection, most likely a poor binder, though not proof of it.

apparent Kd | detected | signal with controls | VH
nd | 0/3 | 0/9 | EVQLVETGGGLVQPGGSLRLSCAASGFTLNSYGISWVRQAPGKGPEWVSVIYSDGRRTFYKDSVKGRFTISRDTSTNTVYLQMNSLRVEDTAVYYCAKGRAASTFTSWGQGTLVTVSS
90 µM | 1/3 | 1/9 | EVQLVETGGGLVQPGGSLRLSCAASGFTLNSYGISWVRQAPGKGPEWVSCIYSMGRRTFYGDSVKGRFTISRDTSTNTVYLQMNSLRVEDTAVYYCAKGRPAGTFDSWGQGTLVTVSS
52 nM | 3/3 | 2/9 | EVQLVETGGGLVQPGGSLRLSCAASGFKLNSYGISWVRQAPGKGPEWVSVIYHDGRRTFYGDMVKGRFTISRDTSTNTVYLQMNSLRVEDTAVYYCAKGRAAGTFDSWGQGTLVTVSS
nd | 0/3 | 0/9 | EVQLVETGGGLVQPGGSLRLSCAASGFTLNSYGMSWVRQAPGKGPEWVSVIYSDGRRTFYGDMVKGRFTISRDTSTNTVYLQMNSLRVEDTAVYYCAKGRAAGTFRSWGQGTLVTVSS
280 nM | 3/3 | 0/9 | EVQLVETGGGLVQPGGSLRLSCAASGFTLVSYGISWVRQAPGKGPEWVSVIYSDGRRTFYGDSVKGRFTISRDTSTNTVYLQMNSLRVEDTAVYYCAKGRSAGTFDLWGQGTLVTVSS
nd | 0/3 | 3/9 | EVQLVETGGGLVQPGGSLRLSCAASGFTLNSYKISWVRQAPGKGPEWVSVIYSDGRRTFYGDSVKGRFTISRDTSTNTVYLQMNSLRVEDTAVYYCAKGRAANTFDSWGQGTLVTVSS
7.4 µM | 3/3 | 2/9 | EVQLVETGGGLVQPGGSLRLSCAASNFTLNSYGISWVRQAPGKGPEWVSVIYSDGRRTHAGDSVKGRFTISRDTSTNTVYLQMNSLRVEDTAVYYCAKGRAAGTFDSWGQGTLVTVSS
200 nM | 3/3 | 1/9 | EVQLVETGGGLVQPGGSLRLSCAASGFTLNQYGISWVRQAPGKGPEWVSVIYSDGRRTFYGDSSKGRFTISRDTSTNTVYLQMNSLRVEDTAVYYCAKGRAAGTFDSWGQGTLVTVSS
nd | 0/3 | 0/9 | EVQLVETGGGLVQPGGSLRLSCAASGFTLNSYGISWVRQAPGKGPEWVSVIYSDGRRTFYGDIVKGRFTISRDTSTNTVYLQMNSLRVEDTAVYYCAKGLAAGTFWSWGQGTLVTVSS
nd | 0/3 | 2/9 | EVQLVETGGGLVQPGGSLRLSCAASGFTLNSYGISWVRQAPGKGPEWVSVIYSDVLRYFYGDSVKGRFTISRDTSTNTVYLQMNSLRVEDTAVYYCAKGRAAGTFDSWGQGTLVTVSS
nd | 0/3 | 0/9 | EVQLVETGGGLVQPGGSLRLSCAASGFTLNSYGISWVRQAPGKGPEWVSVIWSDGLRTFYGDSVKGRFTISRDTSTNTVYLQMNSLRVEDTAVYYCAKGRAAGTFDSWGQGTLVTVSS
nd | 0/3 | 0/9 | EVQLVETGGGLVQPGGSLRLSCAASGFTLNSHGISWVRQAPGKGPEWVSVITSDGRITFYGDSVKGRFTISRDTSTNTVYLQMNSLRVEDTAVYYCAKGRAAGTFDSWGQGTLVTVSS
130 µM | 3/3 | 6/9 | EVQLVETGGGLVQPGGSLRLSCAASGFTLNSYGTSWVRQAPGKGPEWVSVIYSDGRRTFYGTSVKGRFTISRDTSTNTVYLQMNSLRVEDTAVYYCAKWRAAGTFDSWGQGTLVTVSS
19 µM | 1/3 | 2/9 | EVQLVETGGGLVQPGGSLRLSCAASGFTLNSYGISWVRQAPGKGPEWVSVIYSDGRWTFYGDSVKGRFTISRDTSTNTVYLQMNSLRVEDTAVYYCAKGRAQITFDSWGQGTLVTVSS
nd | 0/3 | 0/9 | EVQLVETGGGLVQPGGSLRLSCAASGFTLNSPEISWVRQAPGKGPEWVSVIYSDGRRLFYGDSVKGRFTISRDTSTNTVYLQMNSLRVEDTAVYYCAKGRAAGTFDSWGQGTLVTVSS
100 µM | 1/3 | 0/9 | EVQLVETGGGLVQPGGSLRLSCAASGYTLNSYGGSWVRQAPGKGPEWVSVIYSKGRRTFYGDSVKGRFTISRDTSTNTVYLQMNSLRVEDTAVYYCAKGRAAGTFDSWGQGTLVTVSS
nd | 0/3 | 2/9 | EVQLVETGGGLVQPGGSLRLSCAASGFTLNSYGISWVRQAPGKGPEWVSVIYSWYRRTFYGDSVKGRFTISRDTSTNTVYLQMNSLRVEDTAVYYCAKGRAAGTFDVWGQGTLVTVSS
nd | 0/3 | 0/9 | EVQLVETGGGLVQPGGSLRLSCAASGFTLNSYGISWVRQAPGKGPEWVSVWYSDGRRTFFGDSVWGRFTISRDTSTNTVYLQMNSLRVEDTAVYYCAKGRAAGTFDSWGQGTLVTVSS
nd | 0/3 | 1/9 | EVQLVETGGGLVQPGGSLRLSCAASGFTKNSYGISWVRQAPGKGPEWVSVIYSDGRRTFYGDWVKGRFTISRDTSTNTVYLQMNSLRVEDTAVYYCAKGRAACTFDSWGQGTLVTVSS
17 µM | 3/3 | 4/9 | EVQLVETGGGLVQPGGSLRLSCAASGFPLISYGISWVRQAPGKGPEWVSVIYSDARRTFYGDSVKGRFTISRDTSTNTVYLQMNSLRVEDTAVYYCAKGRAAGTFDSWGQGTLVTVSS
110 µM | 1/3 | 2/9 | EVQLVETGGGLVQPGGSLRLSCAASGFTLNSYGINWVRQAPGKGPEWVSVGYSDGRRTFYGDCVKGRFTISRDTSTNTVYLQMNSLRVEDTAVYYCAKGRAAGTFDSWGQGTLVTVSS
nd | 0/3 | 1/9 | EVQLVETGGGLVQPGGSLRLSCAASGFTLNSYGGSWVRQAPGKGPEWVSVIYSDGRRTFYGDSVKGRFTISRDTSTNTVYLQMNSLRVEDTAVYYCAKGRAAVWFDSWGQGTLVTVSS
nd | 0/3 | 1/9 | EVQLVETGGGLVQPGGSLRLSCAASGQTLNSYGISWVRQAPGKGPEWVSVIHSDGRRTFYGASVKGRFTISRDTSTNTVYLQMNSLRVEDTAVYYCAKGRAAGTFDSWGQGTLVTVSS
4.6 µM | 1/3 | 3/9 | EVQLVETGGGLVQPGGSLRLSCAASGFTLNSYWISWVRQAPGKGPEWVSVIYSDGRETFYGDSVKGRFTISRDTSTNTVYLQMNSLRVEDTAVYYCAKGRAAGTFDSWGQGTLVTVSS
nd | 0/3 | 2/9 | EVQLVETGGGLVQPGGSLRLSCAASGFTLNSYGISWVRQAPGKGPEWVSVIYSDSRRTFYGDSVKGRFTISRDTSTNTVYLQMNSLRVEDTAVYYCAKRRAAHTFDSWGQGTLVTVSS

2 of these entries, quoted again:

VH,apparent Kd,detected,signal with controls
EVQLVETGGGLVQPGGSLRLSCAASGFTLNQYGISWVRQAPGKGPEWVSVIYSDGRRTFYGDSSKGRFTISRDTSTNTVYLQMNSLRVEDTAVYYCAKGRAAGTFDSWGQGTLVTVSS,200 nM,3/3,1/9
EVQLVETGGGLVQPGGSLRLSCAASGFTLNSPEISWVRQAPGKGPEWVSVIYSDGRRLFYGDSVKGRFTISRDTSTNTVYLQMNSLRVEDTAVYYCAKGRAAGTFDSWGQGTLVTVSS,nd,0/3,0/9

Background: pairings of library AAYL49 with three empty control strains gave a value in 15% of cases (median 11 µM, 5th percentile 680 nM). Values in that range, when seen in few replicates, are hard to tell from nonspecific mating. Also given: how often the same scFv was detected with the empty control strains. For reference, the parent read 4.4 nM as the reference entry and 13 µM (one replicate of three) as a member of this library.